α-amylase inhibition (starch hydrolysis, method of Bernfeld) data for 1 substance are collected here from patent US5750504A, “Antimicrobial proteins” (Zeneca Agrochemicals, priority 1996, dated 1998).

The target in experiment [1] is Human α-amylase (purchased from Sigma; from human saliva) (human).
Experiment [2] has as its target α-amylase from guts of adult cockroaches (Blatta orientalis), crude extract (Blatta orientalis (cockroach)).

For “SIα3 (Sorgum bicolor homologue) (from UniProt P21925)”, the α-amylase inhibition (starch hydrolysis, method of Bernfeld) in experiment [1] was greater than 70%; in experiment [2], 70%.
